Measured values from ChEMBL document CHEMBL1142484, “Design and synthesis of sulfoximine based inhibitors for HIV-1 protease” (Bioorg Med Chem Lett, 2008).

Target: Protease (Human immunodeficiency virus 1, UniProt Q9YQ12)
Test: Inhibition of HIV1 protease

CC(C)(C)NC(=O)[C@@H]1CN(Cc2cccnc2)CCN1C[C@@H](O)C[C@@H](Cc1ccccc1)C(=O)N[C@H]1c2ccccc2C[C@H]1O [INDINAVIR]
IC50: 0.4 nM
